Reference: article PMC10053807, “Natural Lipid Extracts as an Artificial Membrane for Drug Permeability Assay: In Vitro and In Silico Characterization” (Pharmaceutics, 2023)

Legend:
[1] = PAMPA permeability, heart total lipid extract (HTLE) membrane; conditions: n=3, * = not detected at acceptor side, value calculated from limit of detection
in vitro [2] = conditions: bovine, PAMPA, pH 7.4
[3] = PAMPA permeability, liver polar lipid extract (LPLE) membrane; conditions: n=3, * = not detected at acceptor side, value calculated from limit of detection
in vitro [4] = conditions: bovine, PAMPA, pH 7.4; remark: listed apart in the source
in vitro [5] = conditions: bovine, PAMPA, pH 7.4; remark: listed apart in the source

Mean Pe [1]: < 0,52* 10-6 cm/s | Papp at 4 h, 100 μM (in vitro [2]): < 0.513 ×10⁻⁶ cm/s | Mean Pe [3]: < 0,52* 10-6 cm/s | Papp at 4 h, 100 μM (in vitro [4]): < 0.525 ×10⁻⁶ cm/s | Papp at 4 h, 100 μM (in vitro [5]): < 0.437 ×10⁻⁶ cm/s
Compound: CC1=C(CC(=O)O)c2cc(F)ccc2/C1=C\c1ccc([S+](C)[O-])cc1 (centres unmarked) [sulindac]
